Our source for the IC50 values is patent US11548888B2, “KRas G12C inhibitors” (Mirati Therapeutics, Inc., priority 2019, dated 2023).

Protein sequences, listed by entry. Tags and fused reporters are not part of them. Residues count along the entry.
UniProt P01116, 1-188 isoform 2 G12C limits assumed: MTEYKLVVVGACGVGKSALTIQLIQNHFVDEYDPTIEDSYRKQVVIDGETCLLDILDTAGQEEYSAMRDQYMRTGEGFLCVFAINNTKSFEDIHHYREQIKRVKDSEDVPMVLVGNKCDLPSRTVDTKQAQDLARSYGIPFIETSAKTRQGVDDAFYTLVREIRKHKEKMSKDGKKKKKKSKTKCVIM

The assay addresses KRas G12C (Homo sapiens, UniProt P01116, G12C). Nature of the assay: Inhibition of KRas G12C-dependent cell growth: Phospho-ERK in NCI-H358 cells. The note with it: NCI-H358 cells expressing KRas G12C; Phospho-ERK (Thr202/Tyr204) normalized to GAPDH; 3 hours compound; 4 parameter fit.
Broadly, the IC50 is the concentration at which inhibition is half-maximal. Lower therefore signals inhibition by little substance. On to `C=CC(=O)N1CCN(c2ncnc3c(F)c(-c4cc(C)cc5ccccc45)ncc23)CC1`, for which the IC50 came to 10 µM. That is a double-digit micromolar value.

Regarding `O=C(/C=C/C(F)F)N1CCN(c2ncnc3c(F)c(-c4cccc5ccc(F)c(Cl)c45)ncc23)CC1`, the IC50 amounted to 10 µM. `O=C(/C=C/C(F)(F)F)N1CCN(c2ncnc3c(F)c(-c4cccc5ccc(F)c(Cl)c45)ncc23)CC1` registered an IC50 of 10 µM. For `C=C(F)C(=O)N1CCN(c2nc(OCC3CCN3C3CC3)nc3c(F)c(-c4cccc5cccc(Cl)c45)ncc23)C[C@@H]1CC#N` (some centres unmarked), the IC50 is 0.031 µM. The value for `O=C(/C=C/CF)N1CCN(c2ncnc3c(F)c(-c4cccc5ccc(F)c(Cl)c45)ncc23)CC1` was 10 µM.
